# Apparent affinities of Ab-95 variants for a coronavirus HR2 peptide

All variants were tested on one target, the spike HR2 peptide PDVDLGDISGINAS (SARS-CoV-2).

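AAYL52 was designed without a model: most single CDR substitutions and a random sample of double and triple ones. In AlphaSeq, yeast of one mating type display the scFv and yeast of the other type display the target. The frequency of each diploid, read from paired DNA barcodes, reflects how well the two displayed proteins bind. The ratio of observed to expected reads was calibrated, replicate by replicate, on BCL2-family standards whose Kd was known from biolayer interferometry. The assay was run in three technical replicates.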

Ab-95 is the parent antibody, in scFv form: VH, then a (GGGGS)3 linker, then VL. The heavy chain is unchanged in all variants.
VH: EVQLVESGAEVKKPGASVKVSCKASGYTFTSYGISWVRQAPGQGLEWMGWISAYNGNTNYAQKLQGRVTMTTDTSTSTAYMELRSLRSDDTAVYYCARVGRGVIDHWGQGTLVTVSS
VL: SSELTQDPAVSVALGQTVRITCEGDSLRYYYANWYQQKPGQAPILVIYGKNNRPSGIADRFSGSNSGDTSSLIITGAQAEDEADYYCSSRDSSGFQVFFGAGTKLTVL

Positions count from residue 1 of the parent VL; S55T puts T in place of S. The read-out is the apparent dissociation constant on a log10 scale (nM): the lower, the stronger. Averages over replicates are reported, and they cover detected replicates only. An entry "n.d." has no value in the source: the pair was not observed among the diploids in that replicate. This suggests poor binding but is not conclusive.

{"changes": "S55T+S89G+F95L", "log10 Kd (nM) by replicate": "2.96 / 2.54 / 2.14", "mean log10 Kd (nM)": "2.55", "empty controls": "4/9 (4.02)"}
{"changes": "E23L+G24V+N51C", "log10 Kd (nM) by replicate": "3.53 / 5.44 / n.d.", "mean log10 Kd (nM)": "4.49", "empty controls": "6/9 (3.93)"}
{"changes": "D25Y+N51D+D91N", "log10 Kd (nM) by replicate": "3.57 / 2.97 / n.d.", "mean log10 Kd (nM)": "3.27", "empty controls": "2/9 (3.44)"}
{"changes": "N52L+S92M", "log10 Kd (nM) by replicate": "2.39 / 2.29 / 2.20", "mean log10 Kd (nM)": "2.30", "empty controls": "2/9 (3.71)"}
{"changes": "S26W+Y30Q+S92Q", "log10 Kd (nM) by replicate": "1.22 / 1.08 / 0.69", "mean log10 Kd (nM)": "0.99", "empty controls": "2/9 (4.95)"}
{"changes": "E23G+Y30H+F98N", "log10 Kd (nM) by replicate": "1.61 / 1.23 / 1.02", "mean log10 Kd (nM)": "1.29", "empty controls": "0/9"}
{"changes": "K50Q+R90G+S93F", "log10 Kd (nM) by replicate": "n.d. / 4.37 / n.d.", "mean log10 Kd (nM)": "4.37", "empty controls": "4/9 (4.00)"}
{"changes": "G24R+Y30T+S88Q", "log10 Kd (nM) by replicate": "2.78 / 2.40 / 2.75", "mean log10 Kd (nM)": "2.64", "empty controls": "4/9 (3.73)"}
{"changes": "N52P+R53A+S93L", "log10 Kd (nM) by replicate": "n.d. / n.d. / n.d.", "mean log10 Kd (nM)": "n.d.", "empty controls": "1/9 (4.18)"}
{"changes": "S26W+N33D+Q96H", "log10 Kd (nM) by replicate": "3.19 / n.d. / n.d.", "mean log10 Kd (nM)": "3.19", "empty controls": "1/9 (4.47)"}
{"changes": "S88K+R90A+F98A", "log10 Kd (nM) by replicate": "n.d. / n.d. / n.d.", "mean log10 Kd (nM)": "n.d.", "empty controls": "1/9 (4.96)"}
{"changes": "L27W+K50F+S55E", "log10 Kd (nM) by replicate": "n.d. / n.d. / n.d.", "mean log10 Kd (nM)": "n.d.", "empty controls": "2/9 (3.70)"}
{"changes": "A32Y+N52C+Q96N", "log10 Kd (nM) by replicate": "4.12 / n.d. / n.d.", "mean log10 Kd (nM)": "4.12", "empty controls": "2/9 (3.61)"}
{"changes": "L27M+Y29W+Y30I", "log10 Kd (nM) by replicate": "2.71 / 2.08 / 1.95", "mean log10 Kd (nM)": "2.25", "empty controls": "5/9 (4.24)"}
{"changes": "R28L+S89L+Q96T", "log10 Kd (nM) by replicate": "n.d. / 4.55 / n.d.", "mean log10 Kd (nM)": "4.55", "empty controls": "0/9"}
{"changes": "G49L+S88L+D91I", "log10 Kd (nM) by replicate": "n.d. / n.d. / n.d.", "mean log10 Kd (nM)": "n.d.", "empty controls": "1/9 (5.13)"}
{"changes": "Y29V+N52D+R53V", "log10 Kd (nM) by replicate": "n.d. / n.d. / n.d.", "mean log10 Kd (nM)": "n.d.", "empty controls": "2/9 (4.04)"}
{"changes": "S26C+N51A+P54S", "log10 Kd (nM) by replicate": "3.57 / 5.84 / n.d.", "mean log10 Kd (nM)": "4.71", "empty controls": "6/9 (4.06)"}
{"changes": "N33S+F95R+F98H", "log10 Kd (nM) by replicate": "3.57 / 3.41 / 2.29", "mean log10 Kd (nM)": "3.09", "empty controls": "2/9 (3.02)"}
{"changes": "E23F+Y30G+K50I", "log10 Kd (nM) by replicate": "1.76 / 1.65 / 0.96", "mean log10 Kd (nM)": "1.46", "empty controls": "3/9 (4.18)"}
{"changes": "D25I+R53G+V97Q", "log10 Kd (nM) by replicate": "n.d. / n.d. / n.d.", "mean log10 Kd (nM)": "n.d.", "empty controls": "4/9 (3.53)"}
{"changes": "E23W+D25E+R90T", "log10 Kd (nM) by replicate": "4.09 / 3.39 / n.d.", "mean log10 Kd (nM)": "3.74", "empty controls": "1/9 (4.83)"}
{"changes": "L27E+N52K+R90K", "log10 Kd (nM) by replicate": "4.24 / n.d. / n.d.", "mean log10 Kd (nM)": "4.24", "empty controls": "3/9 (4.09)"}
{"changes": "A32W+S89F+G94I", "log10 Kd (nM) by replicate": "3.67 / n.d. / 4.35", "mean log10 Kd (nM)": "4.01", "empty controls": "1/9 (4.04)"}
{"changes": "Y30W+S92W+Q96T", "log10 Kd (nM) by replicate": "4.06 / n.d. / n.d.", "mean log10 Kd (nM)": "4.06", "empty controls": "3/9 (3.95)"}
{"changes": "S26T+G49W+P54I", "log10 Kd (nM) by replicate": "n.d. / n.d. / n.d.", "mean log10 Kd (nM)": "n.d.", "empty controls": "0/9"}

Repeated from above, the 4 best binders with a signal in all replicates:

{"changes": "S26W+Y30Q+S92Q", "log10 Kd (nM) by replicate": "1.22 / 1.08 / 0.69", "mean log10 Kd (nM)": "0.99", "empty controls": "2/9 (4.95)"}
{"changes": "E23G+Y30H+F98N", "log10 Kd (nM) by replicate": "1.61 / 1.23 / 1.02", "mean log10 Kd (nM)": "1.29", "empty controls": "0/9"}
{"changes": "E23F+Y30G+K50I", "log10 Kd (nM) by replicate": "1.76 / 1.65 / 0.96", "mean log10 Kd (nM)": "1.46", "empty controls": "3/9 (4.18)"}
{"changes": "L27M+Y29W+Y30I", "log10 Kd (nM) by replicate": "2.71 / 2.08 / 1.95", "mean log10 Kd (nM)": "2.25", "empty controls": "5/9 (4.24)"}

Nonspecific signal, from three strains lacking the peptide, appeared in 28% of pairings of library AAYL52, centred on 3.91 (5% of these signals below 2.90); values are not corrected for it. For each scFv, signals with the empty controls are counted beside the result, with their mean in brackets.

Values reported by Engelhart et al. 2022, doi:10.1038/s41597-022-01779-4 (FLAb copy).